In publication PMC4257840 (Journal of Medicinal Chemistry, 2014):
Marks after values point to notes of the source that are not given here.

Assays:
[1] = test system: nonsensitized rats challenged with a natural mixture of HDM allergens; conditions: rat, in vivo
Der p 1 = target: T1, Der p 1 (Dermatophagoides pteronyssinus, UniProt P08176); assay: biochemical
T1 sequence (P08176 99-320): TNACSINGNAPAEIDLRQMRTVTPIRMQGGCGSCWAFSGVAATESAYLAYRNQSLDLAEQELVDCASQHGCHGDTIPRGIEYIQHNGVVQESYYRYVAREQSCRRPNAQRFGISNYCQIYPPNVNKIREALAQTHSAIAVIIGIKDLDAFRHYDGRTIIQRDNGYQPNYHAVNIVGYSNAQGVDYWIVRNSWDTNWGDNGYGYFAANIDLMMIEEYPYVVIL

CC(C)[C@H](NC(=O)[C@H](C)NC(=O)[C@@H](NC(=O)C1CC[N+](C)(C)CC1)C(C)(C)C)C(=O)C(=O)NCc1ccccc1.O=C[O-] [Compound 32, 4-{(S)-1-[(S)-1-((S)-1-Benzylaminooxalyl-2-methyl-propylcarbamoyl)-ethylcarbamoyl]-2,2-dimethyl-propylcarbamoyl}-1,1-dimethyl-piperidinium Formate]
reduction in innate BAL eosinophil response [1]: 58.7 ± 11.3 ^d %

CC(C)[C@H](NC(=O)[C@H](C)NC(=O)[C@@H](NC(=O)c1ccccc1)C(C)(C)C)C(=O)C(=O)NCc1ccccc1 [Compound 38, N-{(S)-1-[(S)-1-((S)-1-Benzylaminooxalyl-2-methyl-propylcarbamoyl)-ethylcarbamoyl]-2,2-dimethyl-propyl}-benzamide]
IC50 (Der p 1): 9 ± 1 nM | Ki (Der p 1): 4.5 nM

CC(C)[C@H](NC(=O)[C@H](C)NC(=O)[C@H](Cc1ccccc1)NC(=O)c1ccccc1)C(=O)C(=O)NCC(=O)N1CC[N+](C)(C)CC1.O=C[O-] [Compound 52, 4-(2-{(S)-3-[(S)-2-((S)-2-Benzoylamino-3-phenyl-propionylamino)-propionylamino]-4-methyl-2-oxo-pentanoylamino}-acetyl)-1,1-dimethyl-piperazin-1-ium Formate]
duration of protection: trend of inhibition of eosinophil recruitment with increasing pre-treatment interval [1]: rise to a peak
